Apparent affinities of Ab-14 variants for a coronavirus HR2 peptide

Reference: Li et al. 2023, doi:10.1038/s41467-023-39022-2. File: FLAb, binding data.

Target: peptide PDVDLGDISGINAS, taken from heptad repeat 2 (HR2) of SARS-CoV-2 spike.

Parent: Ab-14, a human scFv built as VH, the linker GGGGSGGGGSGGGGS, VL. Only the CDRs of the light chain vary.
VH: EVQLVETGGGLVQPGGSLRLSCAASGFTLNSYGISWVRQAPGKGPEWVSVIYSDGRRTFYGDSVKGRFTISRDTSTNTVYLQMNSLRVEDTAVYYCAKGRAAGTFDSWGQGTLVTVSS
VL: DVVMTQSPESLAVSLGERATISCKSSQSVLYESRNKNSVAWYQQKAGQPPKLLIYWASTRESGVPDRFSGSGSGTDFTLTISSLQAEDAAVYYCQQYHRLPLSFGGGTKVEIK

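The variants were designed computationally from a first round of random CDR variants and then made and measured. Group labels follow the data file (En: ensemble of fine-tuned language models; GP: Gaussian process model; HC: hill climbing; Gen: genetic algorithm; Gibbs: Gibbs sampling; a sequence that several methods proposed may carry one label only). In AlphaSeq, yeast of one mating type display the scFv and yeast of the other type display the target. After mating in shaken culture at 30 °C for 16 h, diploids were selected and their barcode pairs sequenced. The ratio of observed to expected reads was calibrated, replicate by replicate, on BCL2-family standards whose Kd was known from biolayer interferometry. Mating was done six times.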

The parent's light chain CDRs are KSSQSVLYESRNKNSVA, WASTRES, QQYHRLPLS; each variant's own CDRs replace them letter for letter.
Variants here have more than six changes.
Affinities are written as log10 Kd with Kd in nM; a lower number is a better binder.
A pair that was not seen in that replicate is written "ND"; this usually means weak binding, but a binder can also be missed.
A sequence measured in both rounds can read differently, since the two assays cover different ranges.

CDR-L1	CDR-L2	CDR-L3	group	replicates, log10 nM	signal with controls
MISQLYNMGTFAINSVA	QASIRNI	QQYDRLPLI	En_Gen	ND ND ND 2.66 ND ND	1 of 18 (3.67)
KLSQSDLYESRMSNNVA	MASTRMV	QQYHRLPLS	GP_Gibbs	0.54 1.02 0.70 0.74 0.93 0.74	0 of 18
YLSMMAANQVNESSSIA	NAEQTYD	QQYHELPLV	En_Gibbs	ND 2.07 ND ND 2.47 3.20	0 of 18
KLSMSYRQESENKNSIA	ELVTRMS	QQYHRLPLS	En_HC	1.00 1.08 1.00 0.97 1.12 0.72	2 of 18 (2.83)
RISIPMDYYMENRSSIA	EMTVKEM	QQYQKLPLA	En_Gibbs	2.12 1.94 2.41 2.53 ND ND	0 of 18
KVSEFMRGLMSKKDSIA	DNVTRSN	QQYDRLPLS	En_Gen	0.92 0.58 1.00 0.24 0.65 0.59	2 of 18 (2.41)
MISQLFMYGTRNYNSIA	QASTREK	QQYDRLPLE	En_HC	0.81 1.30 1.60 1.91 1.54 2.93	0 of 18
KYWISHLGESRNKNAVA	NASTREE	QQYHRLPLS	GP_Gibbs	0.13 0.14 -0.09 -0.02 0.20 -0.03	3 of 18 (2.72)
KWQKDSLGQEQYQNNIA	NQELRTA	QQYYMLPLT	En_Gibbs	0.68 0.55 0.42 0.19 0.24 0.40	1 of 18 (2.01)
KCQQNVLIMGRNKNNVA	EMTTREE	QQYDRLPLS	En_HC	0.17 0.35 0.30 -0.02 0.27 0.40	1 of 18 (2.89)
KMEQGVWYESRNKGSVA	GASVRES	QQYHRLPLS	GP_HC	0.06 0.13 0.09 0.01 0.15 0.02	1 of 18 (1.52)
LISQSELYEQRNKNSVA	DASQRLS	QQYHRLPLS	GP_Gibbs	0.67 0.98 0.44 0.92 0.81 0.59	0 of 18
KLSMTSEMEHKNRNSVA	ELVTRMS	QQYNRLPLS	En_Gen	-0.22 0.20 -0.26 0.25 0.17 0.07	0 of 18
YLDSGDVDGQKSKESIA	DADHKGA	QQYARLPLG	En_Gibbs	0.80 0.81 1.01 0.66 0.89 1.15	1 of 18 (2.39)
QINVDRLMNYLLNDAIA	GKTLRVD	QQYARLPLS	En_Gibbs	0.49 0.26 -0.03 -0.04 0.09 0.23	0 of 18
MISQLYNMGQFAINSVA	QANERCN	QQYDRLPLI	En_Gen	ND 1.30 1.44 1.94 1.98 3.07	0 of 18
KLEQSQLYGSRNKNSVA	NASERER	QQYHRLPLS	GP_Gibbs	0.01 -0.37 -0.41 -0.52 -0.33 -0.31	1 of 18 (2.53)
NLKEWNVDNQTFYSNIA	EADIREL	QQYYRLPLQ	En_Gibbs	1.62 1.90 1.54 1.81 2.12 1.70	1 of 18 (3.01)
IVSQLMLWGMHARNSIA	EAVTRLN	QQYDRLPLF	En_Gen	1.12 1.08 1.20 1.14 1.67 1.31	0 of 18
MISQLYNMGQFAINSVA	QASTRNA	QQYDRLPLM	En_Gen	2.21 1.29 ND 1.75 2.41 1.34	0 of 18
TISTSALYESTNKNSVA	ELSVRGS	QQYERLPLS	En_HC	0.43 0.76 0.30 0.79 0.11 0.59	0 of 18
IVSQLMLWGYHAKNSIA	EAVTRLN	QQYDRLPLF	En_Gen	ND ND ND ND ND ND	0 of 18
KISQSVGYESRNKNSIA	NANQREQ	QQYHRLPLS	GP_Gibbs	0.02 -0.07 -0.20 -0.26 -0.14 0.02	0 of 18
RLSALSGIQSVERNSVA	QNSTRES	QQYDHLPLS	En_Gen	ND ND 1.15 ND ND ND	0 of 18
NISHFMDVTAKNINNVA	EMTMREV	QQYHHLPLS	En_Gen	0.89 1.64 1.75 1.38 1.66 1.74	0 of 18
MISQIYNMGQFAINSVA	QASIRNA	QQYDRLPLI	En_Gen	2.26 2.09 1.12 1.90 1.88 1.01	0 of 18
MISDLMLHGSRAKNPIA	NASTREY	QQYHRLPLE	En_HC	0.76 0.91 0.61 0.55 0.58 0.93	0 of 18
KFGQMVLTGAYVSNSVA	QSSTREN	QQYHRLPLS	En_HC	0.30 0.08 0.53 0.11 0.26 0.76	1 of 18 (4.01)
ALTNEPESVNHHKNNVA	STSKRCM	QQYARLPLS	En_Gibbs	0.99 0.75 0.86 0.84 0.57 1.05	6 of 18 (3.10)
NIQDNEGGLLSQKNSVA	STEERSD	QSYHRLPLS	En_Gibbs	1.09 0.46 1.00 0.50 0.57 0.54	1 of 18 (2.08)
MVSQLMLWGLHAKNSIA	EAEHRCN	QQYDRLPLF	En_Gen	1.25 2.01 1.34 1.92 1.59 1.99	0 of 18
KLSSLQFDSYMQKENVA	ESTQVFN	QQYHHLPLT	En_Gibbs	1.45 1.31 0.69 0.82 1.00 1.07	0 of 18
TISDLIMVASRNKNSVA	DESTRPD	QQYHRLPLS	En_HC	0.61 1.78 2.32 0.66 0.24 0.82	1 of 18 (1.57)
TIGQMFNGESRIRNSVA	QASTRES	QSYDRLPLA	En_HC	0.41 0.55 0.63 0.58 0.68 0.81	1 of 18 (3.02)
RLTQQMAGFNRHANAIA	STAERQW	QQYARLPIS	En_Gibbs	1.33 0.78 0.70 0.87 0.68 1.13	3 of 18 (2.79)
HFSQVTMYGLWNKNSVA	QTSTREE	QQYDRLPLS	En_HC	0.76 0.53 1.43 0.84 0.98 0.69	1 of 18 (1.84)
KITHQMRTGMAQRNAMA	NGAMRNE	QFYSRLPLF	En_Gibbs	1.32 0.34 0.23 0.03 0.70 1.11	0 of 18
KLSESVRMESFNKDSVA	ENSTREA	QDYHRLPLS	En_HC	1.10 1.38 1.93 2.09 ND 0.89	1 of 18 (1.78)

For reference, 2 entries of the list once more:

CDR-L1	CDR-L2	CDR-L3	group	replicates, log10 nM	signal with controls
MISQLFMYGTRNYNSIA	QASTREK	QQYDRLPLE	En_HC	0.81 1.30 1.60 1.91 1.54 2.93	0 of 18
MISQLYNMGQFAINSVA	QASTRNA	QQYDRLPLM	En_Gen	2.21 1.29 ND 1.75 2.41 1.34	0 of 18

The authors' rule: three or more of the six replicates give a measured affinity, fewer mean a poor binder.
Three control strains display no target. For all light chain designs, 4% of the pairings with them gave a signal, with a median of 2.64 and one signal in twenty below 1.59, so weak values seen in few replicates may be background. Also given: how often the same scFv was detected with the empty control strains, with their mean in brackets.
The parent sequence was in this pool as ten entries: three were never detected, three once, and four in most replicates, with averages from 0.34 to 2.37.